For assay [1], the target named is T1, recombinant chimpanzee PSMA extracellular domain (ECD) protein (Pan troglodytes, UniProt Q04609 44-750 (human entry)).
T1 construct: also called Chimp PSMA ECD; PSMG8
T1 chain: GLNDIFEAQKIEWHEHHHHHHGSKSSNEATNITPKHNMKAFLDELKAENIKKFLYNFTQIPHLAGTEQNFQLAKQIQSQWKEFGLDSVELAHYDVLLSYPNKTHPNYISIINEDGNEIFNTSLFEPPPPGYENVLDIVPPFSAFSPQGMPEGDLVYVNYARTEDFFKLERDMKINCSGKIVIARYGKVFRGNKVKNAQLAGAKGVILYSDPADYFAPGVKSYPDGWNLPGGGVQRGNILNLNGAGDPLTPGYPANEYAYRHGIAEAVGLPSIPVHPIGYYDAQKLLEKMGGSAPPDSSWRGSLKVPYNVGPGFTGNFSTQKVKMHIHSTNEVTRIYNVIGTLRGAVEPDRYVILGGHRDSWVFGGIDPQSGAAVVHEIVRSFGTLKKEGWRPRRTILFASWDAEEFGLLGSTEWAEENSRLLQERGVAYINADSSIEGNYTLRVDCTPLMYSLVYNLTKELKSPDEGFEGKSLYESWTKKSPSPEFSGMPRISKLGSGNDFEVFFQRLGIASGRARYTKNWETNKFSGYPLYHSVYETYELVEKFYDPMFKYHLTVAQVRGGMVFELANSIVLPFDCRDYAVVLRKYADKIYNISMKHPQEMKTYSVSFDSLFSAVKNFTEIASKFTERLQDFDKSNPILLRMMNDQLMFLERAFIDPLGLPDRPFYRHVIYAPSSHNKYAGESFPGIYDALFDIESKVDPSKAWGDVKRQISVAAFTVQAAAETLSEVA
Kind of assay: SPR ProteOn, bsAb captured by anti-Fc. The method, then: The interactions of PSMA×CD3 bispecific mAbs with target (recombinant Chimp, PSMA) were studied by Surface Plasmon Resonance (SPR) using a ProteOn XPR36 system (BioRad). […] Approximately 4400 RU (response units) of anti-Human IgG Fc antibodies were immobilized. The kinetic experiments were performed at 25° C. in running buffer (DPBS+0.03% P20+100 μg/ml BSA). To perform kinetic experiments, 100 RU of bispecific antibodies were captured followed by injections of analytes (recombinant Chimp PSMA ECD) at concentrations ranging from 3.7 nM to 300 nM (in a 3-fold serial dilution). The association phase was monitored for 3 minutes at 50 μL/min, then followed by 15 minutes of buffer flow (dissociation phase). The chip surface was regenerated with two 18 second pulses of 100 mM Phosphoric acid (H₃PO₄, Sigma, cat #7961) at 100 μL/min.
The collected data were processed using ProteOn Manager software. First, the data was corrected for background using inter-spots. Then, double reference subtraction of the data was performed by using the buffer injection for analyte injections. The kinetic analysis of the data was performed using a Langmuir 1:1 binding model. The result for each bispecific antibody was reported in the format of kₐ (On-rate), kd (Off-rate) and KD (equilibrium dissociation constant).

The target in assay [2] is T2, chimpanzee PSMA, full length (Pan troglodytes, UniProt Q04609 1-750 (human entry)).
T2 construct: On transfected HEK293F cells; also called chimp PSMA; H2Q3K5_PANTR
T2 chain: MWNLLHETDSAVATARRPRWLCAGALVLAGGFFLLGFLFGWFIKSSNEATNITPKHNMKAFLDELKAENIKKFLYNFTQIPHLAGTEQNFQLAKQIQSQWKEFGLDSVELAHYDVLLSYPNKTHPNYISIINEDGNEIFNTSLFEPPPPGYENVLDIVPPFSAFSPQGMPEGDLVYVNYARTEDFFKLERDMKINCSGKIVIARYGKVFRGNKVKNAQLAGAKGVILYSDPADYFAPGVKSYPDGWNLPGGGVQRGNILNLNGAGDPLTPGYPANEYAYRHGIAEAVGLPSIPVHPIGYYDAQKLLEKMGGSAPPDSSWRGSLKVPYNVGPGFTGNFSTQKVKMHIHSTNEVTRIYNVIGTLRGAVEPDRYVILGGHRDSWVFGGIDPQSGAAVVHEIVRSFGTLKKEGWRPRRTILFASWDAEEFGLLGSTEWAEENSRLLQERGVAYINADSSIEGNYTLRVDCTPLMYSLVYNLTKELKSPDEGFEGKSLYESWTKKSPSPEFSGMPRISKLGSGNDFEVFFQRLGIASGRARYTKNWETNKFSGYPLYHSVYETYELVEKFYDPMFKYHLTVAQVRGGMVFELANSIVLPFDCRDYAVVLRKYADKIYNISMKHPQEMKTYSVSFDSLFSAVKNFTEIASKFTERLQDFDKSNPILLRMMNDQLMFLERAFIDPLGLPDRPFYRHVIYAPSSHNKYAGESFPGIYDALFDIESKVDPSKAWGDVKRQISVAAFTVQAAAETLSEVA
The experiment in a line: FACS, whole cell binding, chimp PSMA HEK; calculated EC50. Here is the method: (§1) PSMA×CD3 bispecific antibodies were tested for binding to PSMA positive cell lines LNCAP, human PSMA-HEK, Chimpanzee-PSMA-HEK and Cynomolgous monkey PSMA-HEK. To assess the binding capabilities of the PSMA bispecific antibodies, the cell-binding assay was utilized (described previously). Briefly, PSMA expressing tumor cells are bound by bispecific antibodies at known concentrations and the bound antibody is detected by an anti-human kappa light chain PE conjugated detection reagent (Invitrogen). The Mean Fluorescents Intensity (MFI) is the measure of bound bispecific antibody. The MFI is converted to a relative EC₅₀. EC₅₀ is a commonly used dose-response curve, where the half maximal effective concentration or the EC₅₀ point is defined as the inflection point of the curve. EC₅₀ s were determined by measuring cell bound bispecific and known concentrations. […] The dose response curves were then diluted down to that of background or no bispecific binding. The inflection point of this curve reflects the EC₅₀ point. The calculated EC₅₀ is determined by taking the ug/ml amount of bispecific antibody at the EC₅₀ point and converting it to a molarity value based on the MW of the bispecific antibody. Bispecific antibodies were normalized for protein concentration and then incubated with the same number of cells expressing either human or cyno PSMA. […]

The target of assay [3] is T3, human PSMA (prostate specific membrane antigen), full length (human, UniProt Q04609 1-750).
T3 construct: On LNCaP or C4-2B cells (endogenous) or transduced HEK293F cells; also called FOLH1_HUMAN; hPSMA
Kind of assay: FACS, whole cell binding, LNCaP. Here is the method: as §1
(In general: Flow cytometry measures light scatter and fluorescence of single cells or particles in a stream.)

The target in assay [4] is T4, Cynomolgous monkey PSMA, full length (Macaca fascicularis, UniProt Q04609 1-750 (human entry)).
T4 construct: On transfected HEK293F cells; also called cyno PSMA; EHH56646.1
T4 chain: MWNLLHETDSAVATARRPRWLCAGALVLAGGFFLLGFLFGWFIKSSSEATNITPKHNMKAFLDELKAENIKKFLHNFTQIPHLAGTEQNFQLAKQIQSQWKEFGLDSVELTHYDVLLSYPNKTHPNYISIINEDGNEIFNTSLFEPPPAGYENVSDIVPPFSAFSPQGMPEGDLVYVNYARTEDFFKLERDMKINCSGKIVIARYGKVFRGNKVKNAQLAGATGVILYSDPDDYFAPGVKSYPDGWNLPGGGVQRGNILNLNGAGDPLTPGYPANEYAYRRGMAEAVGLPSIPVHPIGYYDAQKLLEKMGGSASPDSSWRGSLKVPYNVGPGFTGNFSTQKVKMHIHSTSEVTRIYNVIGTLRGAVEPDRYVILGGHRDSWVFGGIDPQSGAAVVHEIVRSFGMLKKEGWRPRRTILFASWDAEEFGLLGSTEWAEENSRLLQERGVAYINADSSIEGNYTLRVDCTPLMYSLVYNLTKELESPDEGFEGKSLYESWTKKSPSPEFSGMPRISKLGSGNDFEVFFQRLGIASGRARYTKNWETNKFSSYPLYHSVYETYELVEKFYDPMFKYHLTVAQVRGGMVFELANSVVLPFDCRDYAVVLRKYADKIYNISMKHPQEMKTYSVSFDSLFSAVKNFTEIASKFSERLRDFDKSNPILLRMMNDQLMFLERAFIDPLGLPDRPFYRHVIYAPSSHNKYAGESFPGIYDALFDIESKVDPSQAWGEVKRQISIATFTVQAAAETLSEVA
The experiment in a line: FACS, whole cell binding, cyno PSMA HEK; calculated EC50. Here is the method: as §1

In assay [5] the target is T2, chimpanzee PSMA, full length. Kind of assay: FACS, whole cell binding, chimp PSMA HEK. Here is the method:
as §1

Assay [6] has as its target T1, recombinant chimpanzee PSMA …. Kind of assay: SPR Biacore 3000, bsAb captured by anti-Fc. Here is the method:
Binding to recombinant Chimp PSMA by Biacore. The Affinity measurements using Surface Plasmon Resonance (SPR) were performed using a Biacore 3000 optical biosensor (Biacore-GE Healthcare). A biosensor surface was prepared by coupling anti-Human IgG Fc (Jackson ImmunoResearch Laboratory, cat #109-005-098) to the carboxymethylated dextran surface of a CM-5 chip (Biacore, cat # BR-1000-12) using the manufacturer instructions for amine-coupling chemistry. Approximately 16,000 RU (response units) of anti-Human IgG Fc antibodies were immobilized in each of four flow cells. The kinetic experiments were performed at 25° C. in running buffer (DPBS+0.03% P20+[…]). Dilutions of antigen (recombinant Chimp PSMA, concentration either from 1.2-300 nM or 3.7-900 nM in a 3-fold serial dilution) were prepared in running buffer. About 100 RU of PSMA×CD3 bispecific mAbs were captured on flow cell 2 to 4 of the sensor chip. Flow cell 1 was used as reference surface. Capture of PSMA×CD3 bispecific mAb was followed by a 3 or 5-minute injection (association phase) of antigen (recombinant Chimp PSMA) at 50 μl/min, followed by 15 or 20 minutes of buffer flow (dissociation phase). The chip surface was regenerated by two 18-second injections of 100 mM Phosphoric acid (H₃PO₄, Sigma, cat #7961) at 50 μl/min.
The collected data were processed using BIAevaluation software (Biacore). First, double reference subtraction of the data was performed by subtracting the curves generated by buffer injection from the reference-subtracted curves for analyte injections. Then kinetic analysis of the data was performed using a Langmuir 1:1 binding model with global fit. The result for each PSMA×CD3 bispecific mAb was reported in the format of kₐ (On-rate), kd (Off-rate) and KD (Equilibrium dissociation constant).
A general note: Surface plasmon resonance follows binding to a sensor surface in real time, without labels.

In assay [7] the target is T4, Cynomolgous monkey PSMA, full length. The experiment in a line: FACS, whole cell binding, cyno PSMA HEK. The method, then:
as §1

The target in assay [8] is T3, human PSMA (prostate specific membrane …). Kind of assay: FACS, whole cell binding, LNCaP; calculated EC50. The method, then: as §1

B1: PS3B21 (bispecific antibody, human IgG4 S228P, kappa, lambda, F234A L235A)
heavy 1: not shown
light 1: not shown
heavy 2: EVQLVESGGGLVQPGGSLRLSCAASGFTFNTYAMNWVRQAPGKGLEWVARIRSKYNNYATYYAASVKGRFTISRDDSKNSLYLQMNSLKTEDTAVYYCARHGNFGNSYVSWFAYWGQGTLVTVSSASTKGPSVFPLAPCSRSTSESTAALGCLVKDYFPEPVTVSWNSGALTSGVHTFPAVLQSSGLYSLSSVVTVPSSSLGTKTYTCNVDHKPSNTKVDKRVESKYGPPCPPCPAPEAAGGPSVFLFPPKPKDTLMISRTPEVTCVVVDVSQEDPEVQFNWYVDGVEVHNAKTKPREEQFNSTYRVVSVLTVLHQDWLNGKEYKCKVSNKGLPSSIEKTISKAKGQPREPQVYTLPPSQEEMTKNQVSLTCLVKGFYPSDIAVEWESNGQPENNYKTTPPVLDSDGSFLLYSKLTVDKSRWQEGNVFSCSVMHEALHNHYTQKSLSLSLGK
light 2: QTVVTQEPSLTVSPGGTVTLTCRSSTGAVTTSNYANWVQQKPGQAPRGLIGGTNKRAPGTPARFSGSLLGGKAALTLSGVQPEDEAEYYCALWYSNLWVFGGGTKLTVLGQPKAAPSVTLFPPSSEELQANKATLVCLISDFYPGAVTVAWKADSSPVKAGVETTTPSKQSNNKYAASSYLSLTPEQWKSHRSYSCQVTHEGSTVEKTVAPTECS
In general, Kd refers to the constant that tells how readily two partners part at equilibrium. In general, koff refers to the rate constant with which the complex falls apart. A word on the kon: it is the second-order rate constant of association. One may read the EC50 as the concentration that produces a half-maximal response. In the case of B1, the values for the Kd in assay [1] and in assay [6] were 7.1 nM and 44.4 nM, respectively. The koff in assay [1] was 0.000473 s⁻¹; in assay [6], 0.000489 s⁻¹. Besides, the kon in assay [1] is 67000 M⁻¹ s⁻¹; in assay [6], 11000 M⁻¹ s⁻¹. The EC50 is 8.81 nM in assay [2]; 0.737 µg/mL in assay [3]; 6.1 nM in assay [4]; 1.25 µg/mL in assay [5]; 0.86 µg/mL in assay [7]; 5.2 nM in assay [8].

Source of the values: patent publication US20200024360A1 (Janssen / Centocor, published 2020).
